Reference: article PMC11571031 (Protein Science : A Publication of the Protein Society, 2024)

Key:
Test in all cases: purified protein
Conditions in all cases: pH 7.0; 37.0 °C
[1] = system: O=C(O[C@@H]1Cc2c(O)cc(O)cc2O[C@@H]1c1cc(O)c(O)c(O)c1)c1cc(O)c(O)c(O)c1
COC(=O)c1cc(O)c(O)c(O)c1 = system: COC(=O)c1cc(O)c(O)c(O)c1
[2] = system: O=C(O[C@@H]1O[C@H](CO)[C@@H](O)[C@H](O)[C@H]1O)c1cc(O)c(O)c(O)c1

(Clostridium butyricum) was tested, and the Km [1] was 2280 ± 710 µM, the kcat/Km [1] was 162000 M⁻¹ s⁻¹ and the Km (COC(=O)c1cc(O)c(O)c(O)c1) was 3000 ± 470 µM. The kcat/Km (COC(=O)c1cc(O)c(O)c(O)c1) was 69300 M⁻¹ s⁻¹, the Km [2] was 1340 ± 370 µM and the kcat/Km [2] was 52100 M⁻¹ s⁻¹.
